Molecules are shown by their SMILES. Where two headings read alike, the source gives them in different places.

The test system of experiment [1] is klotho^hm mice.
The subject of experiment [2] is klotho^hm mice. The conditions noted are these: mouse, in vivo.

Regarding `CCN(CC)CCCC(C)Nc1ccnc2cc(Cl)ccc12` (racemic) [chloroquine, (RS)—N′-(7-chloroquinoline-4-yl)-N,N-diethyl-pentane-1,4-diamine], in the experiment with klotho^hm mice [1] (mouse, in vivo), the average life expectancy was 90 days and the lifespan result is on record as “drastic extension of the lifespans”. In addition, the “calcification in analyzed tissues (trachea, lungs, kidneys, stomach, vessels)” value in the experiment with klotho^hm mice [2] is given as “significant reduction of the calcification”.
`CC(=O)Nc1nnc(S(N)(=O)=O)s1` [acetazolamide]: the “survival at 90 days” value in the experiment with klotho^hm mice [1] (klotho^hm mice, acetazolamide, control group (n=10) died after 90 days) is listed as “all of the animals treated with acetazolamide were still alive”. In the experiment with klotho^hm mice [1] (klotho^hm mice, treatment in drinking water, versus untreated), the lifespan result is “drastic extension of the lifespans”. In the experiment with klotho^hm mice [1] (klotho^hm mice, treatment in drinking water, untreated controls 66 or 78 days depending on experiment), this compound showed an average life expectancy of 220 days.
Take `Cl.N` [ammonium chloride, Ammonium chloride]: in the experiment with klotho^hm mice [1] (mouse, in vivo), the average life expectancy was 112 days and the “survival at 110 days” value is “all of the mice treated with NH4Cl survived this long”.
For the compound `N.N.O=S(=O)(O)O` [ammonium sulfate, Ammonium sulfate], in the experiment with klotho^hm mice [1] (mouse, in vivo), the average life expectancy was determined as 129 days and the lifespan result was “drastic extension of the lifespans”. Moreover, in the experiment with klotho^hm mice [2], the “calcification in analyzed tissues (trachea, lungs, kidneys, stomach, vessels)” value is recorded as “strongly reduce”.

Source of the values: patent publication US20160346320A1, “SUBSTANCE FOR INHIBITING TISSUE CALCIFICATION, TISSUE FIBROSATION AND AGE-RELATED DISEASES” (Fresenius Kabi Deutschland GmbH, priority 2013, published 2016).
